{"sequences": {"note": "Amino acid sequences for entries named in this document (tags omitted). Residues count along the entry.", "UniProt P51812, 1-397 limits assumed": "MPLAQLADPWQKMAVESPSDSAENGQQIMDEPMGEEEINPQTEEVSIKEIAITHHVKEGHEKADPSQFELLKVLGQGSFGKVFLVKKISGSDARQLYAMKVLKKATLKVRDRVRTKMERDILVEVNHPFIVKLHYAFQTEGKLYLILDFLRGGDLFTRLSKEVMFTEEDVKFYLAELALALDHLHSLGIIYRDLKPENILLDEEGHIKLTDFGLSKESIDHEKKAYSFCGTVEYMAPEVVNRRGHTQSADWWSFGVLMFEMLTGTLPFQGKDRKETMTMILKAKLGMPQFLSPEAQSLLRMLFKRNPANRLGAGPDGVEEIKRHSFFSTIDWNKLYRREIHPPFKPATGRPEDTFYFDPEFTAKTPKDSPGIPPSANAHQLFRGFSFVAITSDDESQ"}, "source": "patent US9040673B2", "about": "“Synthesis and identification of novel RSK-specific inhibitors” (University of Virginia Patent Foundation, priority 2009, dated 2015)", "target": "RSK2 (Homo sapiens, UniProt P51812)", "experiment": "in vitro kinase assay using recombinant, constitutively active RSK2", "settings": "inhibitor 5 μM, 5 nM purified kinases, 30 mins, room temperature"}
{"smiles": "CC(=O)O[C@@H]1[C@@H](OC(C)=O)[C@@H](O)[C@H](Oc2c(-c3ccc(O)cc3)oc3cc(O)cc(O)c3c2=O)O[C@H]1C", "note": "[SL0101, kaempferol 3-O-(3″,4″-di-O-acetyl-α-L-rhamnopyranoside)]", "values": [{"measurement": "inhibition of RSK2 activity among purified kinases", "result": "specifically inhibits RSK2 activity"}]}
